Tested on: Huh7.5 cells
Format: cell-based
Details: human, 3 days
Description: Make a common stock from all tubes. […] 15) Incubate for 24 hr before treatment.
3) Repeat daily for 2 more days.
The results are reported as % cell survival.

OCc1nc2ccccc2n1Cc1ccc(Br)cc1 [EBP059]
2a Cell Viability @ 5 μM: 86%

COC(=O)c1ccc(Cn2cnc3ccccc32)cc1 [EBP062]
2a Cell Viability @ 5 μM: 89%
